# Results: PubChem BioAssay AID2265 (National Center for Advancing Translational Sciences (NCATS), 2010)
# Only a part is listed here, and it is no random draw. Results filed as inconclusive are left out. The source made the active and inactive calls. Calls follow the shape of the dose curve; as a rule, active = well fitted inhibition curve with a large enough effect; inconclusive = small, poorly fitted or top-dose-only effect; inactive = flat fitted curve, though single readings scatter.
# Molecular target: Luciferin 4-monooxygenase (Photuris pensylvanica) (UniProt Q27757)
# Assay: Secondary assay for Inhibitors of Human Pyruvate Kinase M2 isoform: FLuc Counterscreen
# Conditions: Kinase-Glo firefly luciferase, luminescence, 8 min
# Procedure: NIH Chemical Genomics Center [NCGC] Matthew G. Vander Heiden, M.D., Ph.D. [Harvard Medical School, 77 Avenue Louis Pasteur, Boston, MA 02115] MLPCN Grant: 1 R03 MH085679-01 NCGC Assay Overview: Luciferase (Kinase-Glo, Promega Corporation) was assayed for its ability to generate light using ATP and luciferin as substrates. The ATP concentration in the assay (10 uM) was within the linear range of enzyme activity for the assay conditions used. This assay was used as an counter screen for human pyruvate kinase M2 isoform.
# NCGC Assay Protocol Summary: Four uL of substrate mix (final concentration, 50 mM imidazole pH 7.2, 50 mM KCl, 7 mM MgCl2, 10 uM ATP, 0.01% Tween 20, 0.05% BSA) was dispensed into white 1536 well plates. Twenty-three nL of compound was delivered by a pin tool and 2 uL of luciferase detection mix (Kinase-Glo, Promega)) was added. Following 8-minute incubation at ambient temperature, luminescence was measured by a ViewLux (Perkin Elmer) at 5 seconds exposure/plate. Data were normalized to the controls for basal activity (DMSO only) and 100% inhibition (40 uM SIB 1757) and curve fitting was performed using Hill equation.
row,SMILES,Potency
1,Nc1ncnc2c1ncn2C1OC(COP(=O)(O)O)C(O)C1O (configuration not stated),active: 4.11 µM
2,Nc1ncnc2c1ncn2[C@@H]1O[C@H](COP(=O)(O)O)[C@@H](O)[C@H]1O,active: 5.17 µM
